Values of other authors as cited in article PMC1976947.

Chains of the proteins cited; added tags and fusions are not shown. Residues count along the entry.
UniProt P26952, 17-331: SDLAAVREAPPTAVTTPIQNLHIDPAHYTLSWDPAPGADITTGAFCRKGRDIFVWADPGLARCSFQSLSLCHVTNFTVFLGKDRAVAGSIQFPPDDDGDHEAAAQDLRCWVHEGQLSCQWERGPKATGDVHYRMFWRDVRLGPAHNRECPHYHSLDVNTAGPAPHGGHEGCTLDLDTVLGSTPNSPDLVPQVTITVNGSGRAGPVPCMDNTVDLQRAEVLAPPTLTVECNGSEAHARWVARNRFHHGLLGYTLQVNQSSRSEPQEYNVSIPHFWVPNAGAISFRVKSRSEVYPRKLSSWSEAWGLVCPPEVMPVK
UniProt P14753, 25-507: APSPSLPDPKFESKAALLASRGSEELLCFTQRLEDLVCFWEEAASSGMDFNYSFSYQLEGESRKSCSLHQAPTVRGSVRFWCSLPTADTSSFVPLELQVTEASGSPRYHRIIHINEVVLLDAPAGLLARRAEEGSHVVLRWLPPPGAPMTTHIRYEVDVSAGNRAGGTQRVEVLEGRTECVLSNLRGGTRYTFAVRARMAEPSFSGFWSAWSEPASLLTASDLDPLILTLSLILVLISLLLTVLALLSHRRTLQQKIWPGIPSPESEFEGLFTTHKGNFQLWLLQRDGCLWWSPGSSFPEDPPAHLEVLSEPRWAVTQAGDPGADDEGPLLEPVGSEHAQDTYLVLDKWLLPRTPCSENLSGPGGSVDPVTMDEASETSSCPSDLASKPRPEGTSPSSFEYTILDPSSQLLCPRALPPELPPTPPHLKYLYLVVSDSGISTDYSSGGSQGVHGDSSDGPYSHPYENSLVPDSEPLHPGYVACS
UniProt P01586, 27-166: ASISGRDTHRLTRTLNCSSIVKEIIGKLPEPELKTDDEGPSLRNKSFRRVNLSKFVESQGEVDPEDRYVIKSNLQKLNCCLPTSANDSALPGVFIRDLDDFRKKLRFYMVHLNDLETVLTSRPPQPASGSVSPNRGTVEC

Tests used:
[1] = biological target: IL-3 receptor (Mus musculus) (UniProt P26952)
[2] = biological target: erythropoietin receptor (Mus musculus) (UniProt P14753)

Row | Substance | Kd [1] [nM] | Kd [2] [nM]
1 | Interleukin 3 (from UniProt P01586) | 0.017 | –
2 | erythropoietin (from UniProt P01588) | – | 5
